This note sets out measurements from US20030073850A1, “4-Imidazole derivatives of benzyl and restricted benzyl sulfonamides, sulfamides, ureas, carbamates, and amides and their use” (priority 1998, published 2003).

By UniProt entry, the sequences of proteins in these tests, tags left out.
UniProt P23944, whole entry: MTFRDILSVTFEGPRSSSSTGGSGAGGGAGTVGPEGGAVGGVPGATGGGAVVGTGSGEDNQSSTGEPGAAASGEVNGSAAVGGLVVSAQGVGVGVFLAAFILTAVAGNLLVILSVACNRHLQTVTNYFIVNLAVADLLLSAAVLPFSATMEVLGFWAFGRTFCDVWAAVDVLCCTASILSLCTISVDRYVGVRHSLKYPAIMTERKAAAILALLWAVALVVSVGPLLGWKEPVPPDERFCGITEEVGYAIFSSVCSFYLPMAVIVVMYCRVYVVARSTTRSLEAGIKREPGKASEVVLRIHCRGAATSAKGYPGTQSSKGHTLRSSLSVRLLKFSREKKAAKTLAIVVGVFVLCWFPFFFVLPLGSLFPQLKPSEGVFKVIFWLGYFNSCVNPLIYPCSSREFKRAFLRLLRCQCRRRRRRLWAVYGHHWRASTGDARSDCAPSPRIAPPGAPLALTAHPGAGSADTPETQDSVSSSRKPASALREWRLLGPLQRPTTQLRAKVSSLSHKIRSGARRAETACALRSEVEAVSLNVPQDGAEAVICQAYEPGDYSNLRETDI

The term Ki denotes a dissociation constant, usually derived from enzyme kinetics or from competition with a known ligand. Read a high Ki as a looser hold on the target.

The test deals with T1, α1d (rat receptor expressed in mouse fibroblasts) (Rattus norvegicus, UniProt P23944).
T1 construct: expressed in transfected cells; host or cells: mouse fibroblasts
The test can be described thus: Radioligand binding, [3H]-prazosin, α1d. The procedure: For purposes of discussing a, adrenoceptor subtypes, the IUPHAR convention of using lower case letters to define molecular clones and upper case letters to indicate pharmacologically defined adrenoceptors has been followed. Compounds of formula I were evaluated in radioligand binding assays specific for α1A (rat submaxillary gland), α1b (hamster receptor expressed in mouse fibroblasts) and α1d (rat receptor expressed in mouse fibroblasts) using [^3H]-prazosin as the radioligand as described in Knepper, et al. J. Pharm.

For `CS(=O)(=O)Nc1cccc2c1OCCC2c1c[nH]cn1.O=C(O)/C=C\C(=O)O` (single isomer, unassigned; (+)) [Example 93, (+) N-[4-(1H-imidazol-4-yl)-3,4-dihydro-2H-chromen-8-yl]methanesulfonamide Maleate], the affinity, expressed as Ki, was 10 µM.
